PABP polyA inh: PABP-poly(A) binding inhibition; PABP-poly(A) RNA binding, fluorescence polarization; calls only at 35 µM; 1% of 290,000 active; P11940;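 also: calls also rest on retests at 20 µM and on dose response follow-up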
PABP1 MLLE inh: blocks PAM2 peptide binding to the PABP1 MLLE domain; P11940; inhibition, % at 20 µM; 0.36% of 360,000 active; GST-MLLE / FITC-PAM2 fluorescence polarization; AID 588489; in the data active = inhibition above about 35%, passing the limit was not always enough;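 also: plate controls were DMSO wells with GST-MLLE for no effect and wells lacking GST-MLLE protein for full effect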
eIF4H FP inh: inhibitors of RNA binding by human eIF4H. Q15056. eIF4H fluorescence polarization binding assay. inhibition, % at 35 µM. 0.94% of 290,000 active;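 also: calls also rest on retests at 20 µM and on dose response follow-up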
Pemphigus Ab inh: inhibitors of pemphigus antibody binding to human desmoglein-3; binding (percent of control), % at 10 µM; AID 588358; P32926; 0.48% of 310,000 active; DSG3-coupled beads, scFv-anti-DSG3-GFP binding, flow cytometry; stronger effect = lower value;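 active = binding more than 3 SD below its plate's average and above zero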;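 also: hits lower antibody fragment binding to DSG3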
UUG fidelity: modulators of start codon recognition fidelity in yeast; S. cerevisiae UUG-firefly luciferase reporter, luminescence/redox ratio; activity score, % at 18.7 µM; hit rate 0.13% among 350,000; AID 602363;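 active = replicate mean at a twofold rise or more, about +100% in these data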;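 note: firefly luciferase made from a UUG start codon reports start codon fidelity; reporter light over untreated wells divided by growth signal over untreated wells; some hits fall short of that in this replicate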
* marks the source's active call; other numbers are inactive results; i = inactive; / = not tested or not shown; + = active, no number. Sampled rows, rich in hits. Any-hit rate of the full collection: about 1.5%. Unless noted, no rule for the calls is given here.

| # | Structure | UUG fidelity | eIF4H FP inh | PABP polyA inh | PABP1 MLLE inh | Pemphigus Ab inh |
| --- | --- | --- | --- | --- | --- | --- |
| 1 | CCC(=O)N1C[C@H](C)[C@@H](OC)CN(C)C(=O)c2cc(NC(=O)C3CCCCC3)ccc2OC[C@H]1C | 0 | / | / | / | / |
| 2 | Cc1ccccc1NC(=S)NC(=O)c1cncc(Br)c1 | -11 | 1 | i | 21 | 101 |
| 3 | O=C(O)c1cccc(NC(=S)NC(=O)c2cncc(Br)c2)c1 | -24 | / | / | 31 | 92 |
| 4 | Cc1cc(O)ccc1NC(=S)NC(=O)c1cncc(Br)c1 | -25 | 8 | i | 44* | 96 |
| 5 | O=C(NC(=S)Nc1cccc(O)c1)c1cncc(Br)c1 | / | / | / | 42* | / |
| 6 | CC(=O)c1cccc(NC(=S)NC(=O)c2ccc(Br)cc2)c1 | -29 | -6 | i | 41* | 96 |
| 7 | CCNC(=O)C[C@H]1CC[C@@H]2[C@@H](COc3ccc(NC(=O)Nc4ccccc4Cl)cc3C(=O)N2C)O1 | 12 | / | / | / | / |
| 8 | O=C(O)CSc1nc(-c2ccccc2)nc2c1CCCC2 | -14 | 5 | i | 6 | 88 |
| 9 | CSc1nc(SCC(=O)O)c2sc3nc(-c4ccccc4)c4c(c3c2n1)CCC4 | -10 | 71* | + | 10 | 66* |
| 10 | CSc1nc(N2CCN(CCO)CC2)c2sc3nc(-c4ccco4)c4c(c3c2n1)CCC4 | / | 98* | + | / | / |
| 11 | CSc1nc(N(C)CCO)c2sc3nc(-c4ccco4)c4c(c3c2n1)CCC4 | 4 | 79* | + | 9 | 102 |
| 12 | CSc1nc(NCCN(C)C)c2sc3nc(-c4ccco4)c4c(c3c2n1)CCC4 | -10 | / | / | -12 | 116 |
| 13 | CNC(=O)C[C@@H]1CC[C@@H]2[C@@H](COc3ccc(NC(=O)Nc4cc(C)cc(C)c4)cc3C(=O)N2C)O1 | -12 | / | / | / | / |
| 14 | C[C@@H]1CCCCO[C@@H](CN(C)C(=O)Cc2ccccc2)[C@@H](C)CN([C@H](C)CO)C(=O)c2cc(NC(=O)Cc3ccccc3)ccc2O1 | 2 | / | / | / | / |
| 15 | COc1cccc(S(=O)(=O)Nc2ccc3c(c2)[C@H]2C[C@@H](CC(=O)NCc4cccc(F)c4)O[C@@H](CO)[C@H]2O3)c1 | 13 | / | / | / | / |
| 16 | COc1ccc(-c2ccnc3nc(-n4cccc4)nn23)cc1 | / | -9 | i | -10 | 98 |
| 17 | c1coc(-c2ccnc3nc(-n4cccc4)nn23)c1 | / | 94* | + | -6 | 77 |
| 18 | CC1(C)S[C@@H]2[C@H](NC(=O)[C@H](N)c3ccccc3)C(=O)N2[C@H]1C(=O)O | -4 | 63 | + | 3 | 102 |
| 19 | CCOc1ccc2c(c1)-c1c(ssc1=S)C(C)(C)N2C(=O)CSC1=NCCS1 | 13 | 1 | i | 46* | 94 |
| 20 | CC(C)CSC1=NSC2=NC(=O)/C(=C\c3cccs3)C(=N)N12 | / | 51* | i | -26 | 99 |
| 21 | N=C1/C(=C/c2cccs2)C(=O)N=C2SN=C(SCc3ccccc3)N12 | -7 | 15 | i | -10 | 100 |
| 22 | CCC(=O)N1[C@H](CO)[C@H](c2ccccc2)[C@H]1CN(CC)C(=O)c1ccc(F)cc1 | -7 | / | / | / | / |
| 23 | CCNC(=O)c1sc(=S)n(-c2ccc(C)cc2)c1N | -24 | -4 | i | 44* | 95 |
| 24 | CCOC(=O)c1sc(=S)n(-c2ccc(OC)cc2)c1N | -5 | -1 | i | 7 | 96 |
| 25 | COc1ccc(C(=O)CSc2nnc(-c3ccco3)c(-c3ccco3)n2)cc1 | / | 85 | + | 35 | 96 |
| 26 | COc1ccc(NC(=O)CSc2ccc(-c3ccco3)nn2)cc1 | -2 | 12 | i | 17 | 104 |
| 27 | COc1cccc(NC(=O)CSc2nnc(-c3ccco3)c(-c3ccco3)n2)c1 | 0 | 83* | + | 26 | / |
| 28 | COc1cc(NC(=O)CSc2ccc(-c3ccco3)nn2)cc(OC)c1 | -4 | 60* | i | 19 | 105 |
| 29 | COc1ccc(C(=O)CSc2nnc(-c3ccco3)n2C)cc1 | -12 | -1 | i | -3 | 104 |
| 30 | CSc1nnc(-c2ccco2)c(-c2ccco2)n1 | -8 | 97* | + | 26 | 86 |
| 31 | C[C@H](CO)N1C[C@H](C)[C@H](CN(C)S(=O)(=O)c2cccs2)Oc2ncc(/C=C/c3ccccc3)cc2C1=O | -12 | / | / | / | / |
| 32 | C[C@@H]1CN([C@H](C)CO)C(=O)c2cc(NS(=O)(=O)c3ccc(Cl)cc3)ccc2O[C@@H](C)CCCCO[C@@H]1CN(C)S(C)(=O)=O | 1 | / | / | / | / |
| 33 | COc1ccc(NC(=O)CSc2nnc(-c3ccco3)c(-c3ccco3)n2)cc1OC | -4 | 64* | i | -2 | 123 |
| 34 | COc1ccc2nc(C)cc(SCC(=O)N/N=C/c3ccc(O)cc3O)c2c1 | / | 9 | i | 25 | 106 |
| 35 | COc1ccc(N2Cc3ccc(C(=O)N/N=C\c4ccc(O)cc4O)cc3C2)cc1 | / | 65* | i | / | / |
| 36 | Cc1cc(=O)n2[nH]c(-c3ccsc3-n3c(C)ccc3C)cc2n1 | / | 75* | + | -54 | 95 |
| 37 | Cc1nc2cc(-c3ccsc3-n3c(C)ccc3C)[nH]n2c(=O)c1Cl | -14 | 85* | + | 4 | 99 |
| 38 | COCc1cc(=O)n2[nH]c(-c3ccsc3-n3c(C)ccc3C)cc2n1 | -6 | 80* | + | -34 | / |
| 39 | Cc1cc(=O)n2[nH]c(-c3ccc(F)cc3)cc2n1 | / | 2 | i | -3 | 101 |
| 40 | Cc1ccccc1-c1cc2nc(C)c(Cl)c(=O)n2[nH]1 | -13 | / | / | 11 | 96 |
| 41 | O=C(N[C@H]1CC[C@H](CCNS(=O)(=O)Cc2ccccc2)O[C@@H]1CO)c1ccccc1F | 11 | / | / | / | / |
| 42 | O=C(CC(F)(F)F)N1C[C@@H]2[C@H](c3ccccc31)[C@@H](CO)N2C(=O)C1CC1 | 36 | / | / | / | / |
| 43 | CCC(=O)Nc1ccc2c(c1)OC[C@@H](C)N(C(=O)NC1CCCCC1)C[C@@H](C)[C@H](OC)CN(C)C2=O | 7 | / | / | / | / |
| 44 | Cc1nc(NC(=S)Nc2ccccc2)sc1C | / | -4 | i | 37* | 103 |
| 45 | CCc1nnc(NC(=S)Nc2ccccc2)s1 | / | 1 | i | 35 | 105 |
| 46 | NNc1nnc2c3cc(F)ccc3n(CCc3ccccc3)c2n1 | / | -3 | i | -6 | 90 |
| 47 | Fc1ccc2c(c1)c1n[nH]c(=S)nc1n2CCc1ccccc1 | -28 | -10 | i | 40* | 93 |
| 48 | Cc1ccc2c(c1)c1n[nH]c(=S)nc1n2CCc1ccccc1 | / | -4 | i | 41* | 92 |

Part of the list above, with two lines to a compound.
Second line of a record – UUG fidelity	eIF4H FP inh	PABP polyA inh	PABP1 MLLE inh	Pemphigus Ab inh
47. Fc1ccc2c(c1)c1n[nH]c(=S)nc1n2CCc1ccccc1
→ -28	-10	i	40*	93
46. NNc1nnc2c3cc(F)ccc3n(CCc3ccccc3)c2n1
→ /	-3	i	-6	90
44. Cc1nc(NC(=S)Nc2ccccc2)sc1C
→ /	-4	i	37*	103

Values by screen from above:
PABP polyA inh, entries 41 to 48 → /, /, /, i, i, i, i, i

Sorted by molecular weight (highest first): 3 of the compounds above
| # | Structure | UUG fidelity | eIF4H FP inh | PABP polyA inh | PABP1 MLLE inh | Pemphigus Ab inh |
| --- | --- | --- | --- | --- | --- | --- |
| 43 | CCC(=O)Nc1ccc2c(c1)OC[C@@H](C)N(C(=O)NC1CCCCC1)C[C@@H](C)[C@H](OC)CN(C)C2=O | 7 | / | / | / | / |
| 41 | O=C(N[C@H]1CC[C@H](CCNS(=O)(=O)Cc2ccccc2)O[C@@H]1CO)c1ccccc1F | 11 | / | / | / | / |
| 45 | CCc1nnc(NC(=S)Nc2ccccc2)s1 | / | 1 | i | 35 | 105 |

(continued)
| # | Structure | UUG fidelity | eIF4H FP inh | PABP polyA inh | PABP1 MLLE inh | Pemphigus Ab inh |
| --- | --- | --- | --- | --- | --- | --- |
| 49 | CCOC(=O)c1c[nH]c2c(Cl)c(Cl)ccc2c1=O | -9 | -7 | i | -6 | 86* |
| 50 | CCC(CC)c1nnc(NC(=O)c2c(C)nn(Cc3ccccc3Cl)c2C)s1 | / | -8 | i | 2 | 53* |
| 51 | O=C(Nc1ccc(F)cc1)NC1CCN(Cc2nnnn2Cc2ccco2)CC1 | 9 | 74* | + | 6 | 107 |
| 52 | O=C(Nc1ccccc1F)NC1CCN(Cc2nnnn2Cc2ccc(F)cc2)CC1 | -4 | 6 | i | 5 | 97 |
| 53 | O=C(CN1CCN(c2ccc(F)cc2)CC1)Nc1ccccc1Br | -5 | 2 | i | 12 | 90 |
| 54 | O=C(CN1CCN(c2ccc(F)cc2)CC1)Nc1ccccc1[N+](=O)[O-] | / | 60* | + | 17 | / |
| 55 | Cc1noc(C)c1NC(=O)Nc1ccc2c(c1)CC(=O)N([C@H](C)CO)C[C@H](C)[C@H](CN(C)S(=O)(=O)c1ccc(F)cc1)O2 | -1 | / | / | / | / |
| 56 | Cc1ccc(-n2c(C)nc3oc4ccccc4c(=O)c3c2=O)cc1 | -13 | 40* | + | -32 | 101 |

Bioassay records deposited in PubChem BioAssay by several laboratories.
